Compound activity deposited in PubChem by Broad Institute.
Hits are enriched below; roughly 1.8% of the tested compounds scored in any of these assays.
Cneo AK release – causes C. neoformans cell lysis; adenylate kinase release luminescence, 4 h; normalised: neutral wells 0, clomiphene wells 100; lysis activity, % at 15 µM; 360,000 tested, 0.2% active; AID 651654;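 active = mean lysis activity across replicates of at least 80%, whatever share of replicates individually reach that level; inactive = mean lysis activity below 80%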
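Assay system: C. neoformans cells. Amount: yeast cell density of 5 × 10^6 cells/mL. Technique: AK luminescence. Buffer or medium: YPD. Times: static 4 h at 37 °C with compound, 1 h detection. Dosing: single-point compound dose. Read-out: lysis from increased AK signal.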
Yeast UUG start – modulators of start codon recognition fidelity in yeast; S. cerevisiae UUG-firefly luciferase reporter, luminescence/redox ratio; activity score, % at 18.7 µM; hit rate 0.13% among 350,000; AID 602363;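 active = replicate mean at a twofold rise or more, about +100% in these data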;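 note: firefly luciferase made from a UUG start codon reports start codon fidelity; reporter light over untreated wells divided by growth signal over untreated wells; some hits fall short of that in this replicate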
DENV2 CPE rescue – inhibitors of DENV2 cytopathic effect; DENV2-infected cells, cytopathic effect rescue, plate reader; CPE inhibition, % at 9.99 µM; 350,000 tested, 1.7% active; AID 651640; in the data active = CPE inhibition above about 20%, passing the limit was not always enough; inconclusive = no clear call, values can overlap the other calls; tested in BHK-21 cells;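 also: 0% = median of neutral control wells and 100% = median of positive control wells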
E-selectin induc – E-selectin induction on HUVECs; HUVEC E-selectin immunofluorescence imaging; normalized: neutral wells 0, TNF-alpha wells 100; activation, % at 7.58 µM; 260,000 tested, 0.37% active; AID 686992;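 active = mean E-selectin-positive cell signal at least 10% of the positive control, reached in at least 60% of replicates, without over 20% cell loss; inconclusive = no rule given, readout overlaps actives, possibly toxicity-flagged; inactive = the rest, including those meeting only one limit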
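Test system: HUVEC | Signal: Immunofluorescence imaging | Read-out: Percent E-selectin-positive cells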
An asterisk follows results filed as active; ? = inconclusive; / = no result.

SMILES,Cneo AK release,Yeast UUG start,DENV2 CPE rescue,E-selectin induc
O=C(NC1CC1)c1cccc(NC(=O)c2cc(S(=O)(=O)N3CCOCC3)ccc2Cl)c1,4.0,-1.4,93.8*,/
O=C(OCCOc1ccccc1)c1cc(S(=O)(=O)N2CCOCC2)ccc1Cl,1.9,-1.4,-3.5,-0.4
Cc1ccc(S(=O)(=O)N2CCOCC2)cc1C(=O)NC1CCCC1,-3.3,-12.8,2.6,31.2*
C[C@@H]1CN([C@@H](C)CO)C(=O)c2cc(C3=CCCCC3)cnc2O[C@H]1CN(C)Cc1ccccc1F,-1.0,-7.7,1.3,0.5
C[C@@H]1CN([C@H](C)CO)S(=O)(=O)c2ccc(-c3cccnc3)cc2O[C@@H]1CN(C)C,0.2,-11.9,-5.4,1.0
CCCCCNCc1ccc(OCc2ccc(Cl)nc2)c(OC)c1,/,/,31.4*,/
CC(Sc1nnnn1-c1ccc(O)cc1)C(=O)NC1CCCCC1C (centres undefined),1.3,-6.4,34.3*,2.5
COc1cccc(C#Cc2ccc([C@H]3[C@@H](CO)N4C(=O)CN(C(=O)c5ccccc5)C[C@H]34)cc2)c1,/,/,2.4,0.1
CCN1[C@@H]2c3ccc(-c4cccc(F)c4)c(=O)n3C[C@@H]2[C@@H](CO)[C@@H]1C(=O)NCCCN(C)C,/,/,1.5,-0.3
CN(C)C(=O)[C@H]1[C@H](CO)[C@H]2Cn3c(ccc(-c4cccc(F)c4)c3=O)[C@H]2N1C(=O)c1cnccn1,2.0,/,30.1*,0.4
CN(C)C(=O)[C@@H]1[C@@H](CO)[C@@H]2Cn3c(ccc(-c4cccc(F)c4)c3=O)[C@@H]2N1C(=O)c1ccccn1,/,/,/,-0.2
CCN1[C@H](C(=O)NCCCN(C)C)[C@@H](CO)[C@@H]2Cn3c(ccc(-c4cccc(F)c4)c3=O)[C@@H]21,/,/,80.5*,0.1
CCCN1[C@@H]2c3ccc(C4=CCCCC4)c(=O)n3C[C@H]1[C@H](CO)[C@H]2C(=O)N1CCOCC1,-5.1,/,-0.1,-0.1
O=S(=O)(NCC[C@@H]1CC[C@H](NS(=O)(=O)c2cccc(Cl)c2)[C@@H](CO)O1)c1cccc(F)c1,0.0,13.7,-6.1,0.4
C[C@@H]1CCCCO[C@@H](CN(C)C(=O)Nc2ccc(C(F)(F)F)cc2)[C@@H](C)CN([C@@H](C)CO)C(=O)c2cc(NC(=O)C3CCCCC3)ccc2O1,/,/,-8.2,-0.1
C[C@H](CO)N1C[C@H](C)[C@@H](CN(C)C(=O)Nc2ccc(C(F)(F)F)cc2)OCCCC[C@H](C)Oc2ccc(NC(=O)C3CCCCC3)cc2C1=O,1.4,4.4,86.9*,0.1
C[C@@H]1CCCCO[C@H](CN(C)C(=O)Nc2ccc(C(F)(F)F)cc2)[C@@H](C)CN([C@H](C)CO)C(=O)c2cc(NC(=O)C3CCCCC3)ccc2O1,-1.0,4.8,0.5,0.0
C[C@@H]1CCCCO[C@H](CN(C)C(=O)Nc2ccc(C(F)(F)F)cc2)[C@@H](C)CN([C@@H](C)CO)C(=O)c2cc(NC(=O)C3CCCCC3)ccc2O1,1.2,5.4,21.8*,1.4
C[C@@H]1CCCCO[C@H](CN(C)C(=O)Nc2ccc(C(F)(F)F)cc2)[C@H](C)CN([C@H](C)CO)C(=O)c2cc(NC(=O)C3CCCCC3)ccc2O1,-0.5,8.7,32.4*,0.1
C[C@H]1CCCCO[C@H](CN(C)C(=O)Nc2ccc(C(F)(F)F)cc2)[C@@H](C)CN([C@@H](C)CO)C(=O)c2cc(NC(=O)C3CCCCC3)ccc2O1,1.5,1.0,87.5*,0.0

Profiles as entered above. Screens in order: Cneo AK release | Yeast UUG start | DENV2 CPE rescue | E-selectin induc
CCN1[C@@H]2c3ccc(-c4cccc(F)c4)c(=O)n3C[C@@H]2[C@@H](CO)[C@@H]1C(=O)NCCCN(C)C is listed as / | / | 1.5 | -0.3
O=C(OCCOc1ccccc1)c1cc(S(=O)(=O)N2CCOCC2)ccc1Cl is listed as 1.9 | -1.4 | -3.5 | -0.4

3 of the compounds above, with two lines to a compound.
Order of values – Cneo AK release, Yeast UUG start, DENV2 CPE rescue, E-selectin induc
- CN(C)C(=O)[C@@H]1[C@@H](CO)[C@@H]2Cn3c(ccc(-c4cccc(F)c4)c3=O)[C@@H]2N1C(=O)c1ccccn1
 : /, /, /, -0.2
- CCN1[C@@H]2c3ccc(-c4cccc(F)c4)c(=O)n3C[C@@H]2[C@@H](CO)[C@@H]1C(=O)NCCCN(C)C
 : /, /, 1.5, -0.3
- CCN1[C@H](C(=O)NCCCN(C)C)[C@@H](CO)[C@@H]2Cn3c(ccc(-c4cccc(F)c4)c3=O)[C@@H]21
 : /, /, 80.5*, 0.1

Further compounds follow.
SMILES,Cneo AK release,Yeast UUG start,DENV2 CPE rescue,E-selectin induc
C/C=C/c1cnc2c(c1)C(=O)N([C@@H](C)CO)C[C@@H](C)[C@H](CN(C)S(=O)(=O)c1ccccc1)O2,-2.5,-6.3,-1.6,-0.3
O=C(N[C@@H]1CC[C@@H](CCNC(=O)C2CCCCC2)O[C@H]1CO)c1ccncc1,0.4,-14.7,17.6,0.8
Cc1ccccc1-c1ccc2c(c1)O[C@H](CN(C)Cc1ccc(C(=O)O)cc1)[C@H](C)CN([C@H](C)CO)S2(=O)=O,-1.8,/,8.1,-0.3
C[C@@H]1CN([C@H](C)CO)C(=O)Cc2cc(NC(=O)Cc3ccccc3)ccc2O[C@H]1CN(C)Cc1ccc(Cl)c(Cl)c1,-7.4,4.4,27.5*,-1.3
C[C@H](CO)N1C[C@H](C)[C@@H](CN(C)Cc2ccc(Cl)c(Cl)c2)Oc2ccc(NC(=O)Cc3ccccc3)cc2C1=O,1.6,-1.9,3.3,20.3
C[C@@H]1CN([C@@H](C)CO)C(=O)c2cc(NC(=O)Cc3ccccc3)ccc2O[C@@H]1CN(C)Cc1ccc(Cl)c(Cl)c1,-0.4,18.1,5.2,34.9*
C[C@@H]1CN([C@@H](C)CO)C(=O)Cc2cc(NC(=O)Cc3ccccc3)ccc2O[C@H]1CN(C)Cc1ccc(Cl)c(Cl)c1,1.1,8.5,26.3*,1.0
Cc1ccc(S(=O)(=O)Nc2ccc3c(c2)CC(=O)N([C@@H](C)CO)C[C@@H](C)[C@@H](CN(C)C(=O)Nc2ccc(C(F)(F)F)cc2)O3)cc1,-19.1,1.3,-10.1,1.4
COCC(=O)Nc1ccc2c(c1)[C@@H]1C[C@H](CC(=O)NCC(F)(F)F)O[C@H](CO)[C@@H]1O2,45.5,-4.5,-1.8,-0.4
COc1ccc2c3c([nH]c2c1)[C@H](CO)N(Cc1ccccc1)CC31CCN(C(=O)Nc2cccc(F)c2)CC1,/,/,-9.8,-0.7
CNC[C@H]1Oc2ccc(NS(=O)(=O)c3ccc(Cl)cc3)cc2C(=O)N([C@H](C)CO)C[C@H]1C,6.0,-8.5,28.4*,/
CNC[C@@H]1Oc2ccc(NS(=O)(=O)c3ccc(Cl)cc3)cc2C(=O)N([C@@H](C)CO)C[C@@H]1C,14.3,-3.1,8.5,/
CNC[C@H]1Oc2ccc(NS(=O)(=O)c3cn(C)cn3)cc2C(=O)N([C@H](C)CO)C[C@@H]1C,7.6,-5.4,3.8,1.2
CNC[C@@H]1Oc2ccc(NS(=O)(=O)c3cn(C)cn3)cc2C(=O)N([C@@H](C)CO)C[C@H]1C,0.7,-11.7,23.1*,-1.9
CNC[C@@H]1OCCCC[C@@H](C)Oc2ccc(NS(=O)(=O)c3ccc(Cl)cc3)cc2C(=O)N([C@H](C)CO)C[C@H]1C,100.1*,19.6,?,0.4
C[C@@H]1CN([C@H](C)CO)C(=O)c2cc(NS(=O)(=O)c3cn(C)cn3)ccc2O[C@H]1CN(C)Cc1ccncc1,6.2,-16.5,-2.6,92.4*
C[C@@H]1CN([C@H](C)CO)C(=O)c2cc(NS(=O)(=O)c3cn(C)cn3)ccc2O[C@@H]1CN(C)Cc1ccncc1,-1.2,-13.5,0.6,-4.3
CNC[C@@H]1Oc2ccc(NS(C)(=O)=O)cc2C(=O)N([C@@H](C)CO)C[C@H]1C,-2.7,-30.9,-4.4,8.7
CNC[C@@H]1Oc2ccc(NS(C)(=O)=O)cc2C(=O)N([C@@H](C)CO)C[C@@H]1C,/,/,/,32.6*
CNC[C@@H]1OCCCC[C@H](C)Oc2ccc(NS(C)(=O)=O)cc2C(=O)N([C@@H](C)CO)C[C@@H]1C,36.8,19.1,131.5*,-0.3
CO[C@H]1CN(C)C(=O)c2cc(NC(=O)Nc3ccccc3F)ccc2OC[C@H](C)NC[C@H]1C,1.7,-4.6,-0.4,0.1
COc1cc(NC(=O)C/C(C)=N/NC(=O)C2CCCCC2)c(OC)cc1Cl,-0.4,-8.3,?,56.0*
